IC50 data for one molecule are collected here from BindingDB's records for doi:10.1111/cbdd.12319 (University of Massachusetts Boston, 2014).

Chains of the proteins cited; added tags and fusions are not shown. Lines headed by an entry give the natural chain unless they say otherwise; changes in a name come on top.
UniProt O14939: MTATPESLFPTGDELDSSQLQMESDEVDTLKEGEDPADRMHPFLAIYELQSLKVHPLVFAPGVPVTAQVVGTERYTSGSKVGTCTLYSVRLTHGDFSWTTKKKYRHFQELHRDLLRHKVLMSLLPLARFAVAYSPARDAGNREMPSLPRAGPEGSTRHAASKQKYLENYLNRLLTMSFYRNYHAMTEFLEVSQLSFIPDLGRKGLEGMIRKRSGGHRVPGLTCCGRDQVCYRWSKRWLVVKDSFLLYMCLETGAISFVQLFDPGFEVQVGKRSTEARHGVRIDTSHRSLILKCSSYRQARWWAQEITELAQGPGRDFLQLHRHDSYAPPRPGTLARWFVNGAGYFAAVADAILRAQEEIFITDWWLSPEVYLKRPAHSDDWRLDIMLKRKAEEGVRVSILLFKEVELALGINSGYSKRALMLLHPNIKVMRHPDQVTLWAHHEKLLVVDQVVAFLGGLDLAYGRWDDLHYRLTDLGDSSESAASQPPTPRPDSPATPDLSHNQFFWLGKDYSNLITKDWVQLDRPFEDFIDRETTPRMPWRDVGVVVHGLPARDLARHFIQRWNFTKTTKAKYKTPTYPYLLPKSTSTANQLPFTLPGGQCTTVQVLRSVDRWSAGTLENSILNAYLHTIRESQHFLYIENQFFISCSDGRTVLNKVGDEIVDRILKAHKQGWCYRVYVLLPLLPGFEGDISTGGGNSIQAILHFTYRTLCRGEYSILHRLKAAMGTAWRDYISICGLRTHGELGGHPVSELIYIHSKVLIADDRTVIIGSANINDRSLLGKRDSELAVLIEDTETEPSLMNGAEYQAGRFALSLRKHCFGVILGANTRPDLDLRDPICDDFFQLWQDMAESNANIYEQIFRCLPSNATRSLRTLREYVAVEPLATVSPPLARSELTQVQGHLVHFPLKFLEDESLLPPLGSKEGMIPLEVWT

The structures appear in SMILES notation.

This experiment has as its target Phospholipase D2 (Homo sapiens, UniProt O14939). The note with it: 37 °C.

On to `O=C(NCCN1CCC2(CC1)C(=O)NCN2c1ccccc1)c1cnc2ccccc2c1`, for which the 50% inhibitory concentration (IC50) amounted to 450 nM.
